{"source": "patent US20060257489A1", "about": "“Fine particles, method and device for preparation thereof, and agent for parenteral injection and method for production thereof” (priority 2003, published 2006)", "test": "absorbance characteristic before and after laser beam irradiation (photochemical reaction / degeneration)", "assay_type": "physicochemical", "conditions": "saturated water solution, 355 nm (YAG triple higher harmonics)", "procedure": "The absorbance characteristic of the solution was measured by using a general-purpose spectrophotometer (HITACHI U-3500). […] The optical path length was set to 10 mm for the measurement."}
{"smiles": "CCCC(=O)O[C@]1(C(=O)CCl)[C@H](C)C[C@@H]2[C@@H]3CCC4=CC(=O)C=C[C@]4(C)[C@]3(F)C(=O)C[C@@]21C", "note": "[clobetasone butyrate]", "values": [{"measurement": "variation of the absorbance characteristic before and after light irradiation", "result": "no variation"}]}
